# According to publication PMC12486301 (The Journal of pharmacology and experimental therapeutics, 2025):
# Amino acid sequences for entries named in this document (tags omitted). A change or cut given only in a name is not applied to a line headed by its entry.
# UniProt Q14542: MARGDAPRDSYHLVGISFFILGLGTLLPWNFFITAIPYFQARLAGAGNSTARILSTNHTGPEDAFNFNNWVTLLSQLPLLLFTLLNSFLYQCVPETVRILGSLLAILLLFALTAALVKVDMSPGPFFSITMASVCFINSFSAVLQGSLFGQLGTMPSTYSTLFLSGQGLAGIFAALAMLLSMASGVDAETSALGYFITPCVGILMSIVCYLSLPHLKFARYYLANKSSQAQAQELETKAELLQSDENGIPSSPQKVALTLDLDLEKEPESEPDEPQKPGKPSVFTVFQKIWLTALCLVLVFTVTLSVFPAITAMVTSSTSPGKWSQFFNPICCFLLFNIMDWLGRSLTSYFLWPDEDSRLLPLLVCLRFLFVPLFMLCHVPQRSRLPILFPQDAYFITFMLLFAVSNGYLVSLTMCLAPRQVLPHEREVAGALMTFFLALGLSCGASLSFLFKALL
# How the values were obtained:
# [1] = system: HeLa FlpIn ENT2 cell line; details: 5 mM unlabeled uridine, 2 minutes
# [2] = molecular target: ENT2 (Homo sapiens, UniProt Q14542); details: 5 min uptake, pH 7.4
smiles,measurement,setting,value
O=c1ccn([C@@H]2O[C@H](CO)[C@@H](O)[C@H]2O)c(=O)[nH]1 [uridine],total [3H]uridine uptake reduced,[1],~ 80%
same,"Jmax, maximal rate of uridine transport",[2],37.9 ± 7.9 pmol·cm^−2·min^−1
